For this test, the target named is T1, His-CaM(Ca^+2) (Mus musculus, UniProt P0DP26).
T1 construct: purchased Israel Structural Proteomics Center (Weizmann Institute of Science)
Nature of the test: Surface plasmon resonance on immobilized His-CaM with Ca2+. In kind it is binding. The settings on record: read-out: Dissociation constant; SPR, Table 2, CaCl2 0.3 mM. The procedure:
SPR experiments were performed to assess the dissociation constant between His-CaM and the compound 1 in the presence/absence of Ca^2+ ions and other ligands. His-CaM was diluted in 180 μL PBS buffer (4.1 mM, pH=7.3) and 20 μL sodium acetate (1 M, pH=3) to reach a final concentration of 20 μg/mL and then immobilized on a Biacore sensor chip CM5 through EDC/NHS chemistry. Flow cells were activated for 5 min by injecting 50 μL mixture of 50 mM NHS:200 mM EDC. Then 50 μL of His-CaM (20 μg/mL) was injected at a rate of 10 μL/min followed by injection of ethanolamine (1 M) to block the remaining surface-activated groups. Various analytes (Table 1) were injected in different concentrations, ranging from 0.1-2 μM for (20 μL/min, 80 μL injection with a delay of 180 s wash) (Table 1). Between consecutive analyte injections, the surface was regenerated with 2 mM NaOH (20 μL at 10 μL/min) followed by PBS buffer (60 μL at 10 μL/min). Non-derivatized dextran matrix flow cells served as reference cells. For determination of dissociation constants in the presence of M13 or Mastoparan (entries 3 and 4), first 80 μL M13 or Mastoparan (3 μM, 20 μL/min) were injected and after dissociation began 80 μL compound 1 (concentration range of 0.2-2 μM, 20 μL/min) was injected. CaCl2 (0.3 mM) was pre-incubated with the analyte before injections. […]
In general terms: SPR reads the build-up and loss of mass on a sensor chip optically.

Consider Mastoparan, for which the Kd stood at 1.2 nM.

These data come from US11639929B2, “Universal histidine-tag binding compounds and methods of use thereof as fluorescent probes and sensors” (YEDA RESEARCH AND DEVELOPMENT CO. LTD., priority 2014, dated 2023).
